The record followed here is patent publication US20050053580A1, “Use of microbiology non-viral substances for treating acne” (priority 2001, published 2005).

The subject of the data set is SZ95 sebocytes. Nature of the data set: SZ95 sebocyte proliferation, crystal violet assay. As to conditions: 1 μM oligonucleotide, 4 h transfection, 14 h recovery. The class given is cell-based, human.

On to 5′-GCCAAGCUCAAGGAUGGAAGUGCAG-3′, for which the “toxicity (apoptosis/necrosis) to SZ95 sebocytes” value is “probably toxic”.
